Measurements taken from ChEMBL document CHEMBL5634110, “Applications of oxetanes in drug discovery and medicinal chemistry” (Eur J Med Chem, 2023).

Chains of the proteins cited; added tags and fusions are not shown. Lines headed by an entry give the natural chain unless they say otherwise; changes in a name come on top.
UniProt Q06187: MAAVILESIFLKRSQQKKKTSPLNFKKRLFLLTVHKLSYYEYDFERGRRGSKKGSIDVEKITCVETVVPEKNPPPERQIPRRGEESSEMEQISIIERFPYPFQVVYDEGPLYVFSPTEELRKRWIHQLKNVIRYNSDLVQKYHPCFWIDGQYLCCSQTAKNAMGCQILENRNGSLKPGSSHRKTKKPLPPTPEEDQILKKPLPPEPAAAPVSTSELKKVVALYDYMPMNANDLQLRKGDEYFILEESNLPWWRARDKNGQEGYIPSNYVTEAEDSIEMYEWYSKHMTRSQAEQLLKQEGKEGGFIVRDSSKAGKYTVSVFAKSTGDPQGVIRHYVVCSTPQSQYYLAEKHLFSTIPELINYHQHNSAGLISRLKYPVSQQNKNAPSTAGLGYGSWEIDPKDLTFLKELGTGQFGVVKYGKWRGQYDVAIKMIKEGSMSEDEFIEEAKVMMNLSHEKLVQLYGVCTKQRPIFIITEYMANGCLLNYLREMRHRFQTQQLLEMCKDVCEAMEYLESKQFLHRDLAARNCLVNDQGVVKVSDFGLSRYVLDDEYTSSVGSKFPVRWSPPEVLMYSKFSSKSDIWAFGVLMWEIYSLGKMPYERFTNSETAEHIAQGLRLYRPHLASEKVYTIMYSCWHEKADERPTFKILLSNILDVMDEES

Biological target: Tyrosine-protein kinase BTK (Homo sapiens, UniProt Q06187)
Experiment: Inhibition of BTK (unknown origin)

CNC(C)(C)/C=C(\C#N)C(=O)N1CCC[C@H]1Cn1nc(-c2ccc(Oc3ccccc3)cc2F)c2c(N)ncnc21
IC50: 16 nM
